# Measured affinities in a library of Ab-91 heavy chain variants

The target is the same throughout: PDVDLGDISGINAS, from the HR2 region of SARS-CoV-2 spike.

Each scFv is VL, a (GGGGS)3 linker, VH, as in the parent Ab-91, and differs from it in the CDRs of the heavy chain only.
VL: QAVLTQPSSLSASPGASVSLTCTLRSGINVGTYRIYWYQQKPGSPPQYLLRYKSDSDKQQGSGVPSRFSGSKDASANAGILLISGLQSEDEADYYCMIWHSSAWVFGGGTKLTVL
VH: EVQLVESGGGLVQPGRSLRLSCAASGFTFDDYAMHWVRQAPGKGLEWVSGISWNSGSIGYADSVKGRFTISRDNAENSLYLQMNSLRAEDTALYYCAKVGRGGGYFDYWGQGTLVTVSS

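AAYL51 was designed without a model: most single CDR substitutions and a random sample of double and triple ones. The assay is AlphaSeq: two haploid yeast populations carry antibody and antigen on their surface. Binding brings cells together so that they mate, and sequencing counts the barcode pairs among the diploids. The ratio of observed to expected reads was calibrated, replicate by replicate, on BCL2-family standards whose Kd was known from biolayer interferometry. The assay was run in three technical replicates.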

Variants are written as CDR1, CDR2 and CDR3 of the heavy chain (limits as in the source). Parent: GFTFDDYAMH, GISWNSGSIGYADSVK, VGRGGGYFDY.
The read-out is the apparent dissociation constant on a log10 scale (nM): the lower, the stronger.
Averages over replicates are reported, and they cover detected replicates only.
Where no diploid with the target was found in that replicate, the entry reads "nd": below detection, most likely a poor binder, though not proof of it.
For reference, the parent read 1.86 as the reference entry and 0.88 as a member of this library.

| # | CDR-H1 | CDR-H2 | CDR-H3 | log10 Kd (nM) by replicate | log10 Kd (nM), mean | signal with controls |
|---|---|---|---|---|---|---|
| 1 | GFTFDDSYMH | GISWNSGSIGYADSVK | VGRGGGYFIY | nd / 5.69 / nd | 5.69 | 6 of 9 (5.22) |
| 2 | GFVFDDYAMH | GIAWNSGSIGYADSVK | VGRGTGYFDY | 5.02 / 5.52 / 5.59 | 5.38 | 6 of 9 (4.37) |
| 3 | GFTFDDYAMH | GISWNSGQFGYADSVK | VGRPGGYFDY | 5.70 / nd / nd | 5.70 | 1 of 9 (4.79) |
| 4 | GFTMYDYAMH | GISWNSGSIGYADSVK | VGRGGGQFDY | 1.26 / 1.28 / 1.10 | 1.21 | 0 of 9 |
| 5 | GFTFDDYAMH | GISWNSGNIGYHDSYK | VGRGGGYFDY | nd / nd / nd | nd | 1 of 9 (3.71) |
| 6 | GFTFDDYAMH | GISWNSGSIGYAMSVK | VGRGGGYYDY | nd / nd / nd | nd | 0 of 9 |
| 7 | GFTFDDYAMH | GISWNSNSIHYADSVK | VGRGGGYFNY | nd / nd / nd | nd | 0 of 9 |
| 8 | GFTFDDYAMH | HISWHSGSIGYADSVK | VGRGGKYFDY | nd / nd / nd | nd | 0 of 9 |
| 9 | GSTFDDYAMH | GISWNSGSIGYRDEVK | VGRGGGYFDY | nd / nd / nd | nd | 3 of 9 (4.04) |
| 10 | GSTFDDYAMH | GISWNSGSCGYADSVK | VGRGDGYFDY | nd / nd / nd | nd | 0 of 9 |
| 11 | GFTFDDYMMH | GISWNAGSIGYADSVK | VERGGGYFDY | 0.36 / 1.23 / -0.19 | 0.47 | 2 of 9 (3.30) |
| 12 | GFTFLDYAMH | GISWNSGSIYYADSVK | KGRGGGYFDY | 4.95 / nd / nd | 4.95 | 2 of 9 (4.70) |
| 13 | GFTFDDHAMH | GISWNSGSIGSADSVK | VGRGGGYFDY | 4.60 / nd / 5.10 | 4.85 | 2 of 9 (4.51) |
| 14 | GFTFDFYAMH | GISWNDGSIPYADSVK | VGRGGGYFDY | 4.63 / 6.82 / 5.29 | 5.58 | 5 of 9 (4.71) |
| 15 | AFAFDDYAMH | GITWNSGSIGYADSVK | VGRGGGYFDY | 5.23 / nd / nd | 5.23 | 2 of 9 (3.09) |
| 16 | GLTFDDYAMH | GISWNSGSMGYAPSVK | VGRGGGYFDY | 5.84 / 5.00 / nd | 5.42 | 4 of 9 (5.38) |
| 17 | GFTFDDYAMA | GISWNSGSIGYADYFK | VGRGGGYFDY | 3.48 / nd / nd | 3.48 | 0 of 9 |
| 18 | GFTFDDYAMH | GISWNSGSIWYADSVS | VGRGGGYFDY | nd / nd / nd | nd | 0 of 9 |
| 19 | GFTFDDYEMH | GISWNSGSIGYALSVI | VGRGGGYFDY | nd / nd / nd | nd | 0 of 9 |
| 20 | GFTFDDYAMH | GISWNSISDGYADSVK | VGRGGGYFDY | nd / nd / nd | nd | 1 of 9 (2.91) |
| 21 | GFTKDDYAMH | GISWNSGSIGYADSVK | VSRGGGYTDY | nd / nd / nd | nd | 0 of 9 |
| 22 | KWTFDDYAMH | GISWNGGSIGYADSVK | VGRGGGYFDY | 4.07 / nd / nd | 4.07 | 0 of 9 |
| 23 | GFTFDDYGMH | GISWNSGSIGYADSVK | VTRAGGYFDY | 2.11 / 2.21 / 2.02 | 2.11 | 5 of 9 (4.48) |
| 24 | GFTFDDYAMH | GVSWNSGSIGYADSVI | VGWGGGYFDY | 3.23 / 3.14 / 3.19 | 3.19 | 5 of 9 (5.23) |
| 25 | GFTFDDYAMH | GISWNSGSIGYLDSVC | SGRGGGYFDY | nd / nd / nd | nd | 0 of 9 |
| 26 | GFTFDDYFMV | GISWNSGSIGYADSVK | VGRGGGYFDW | nd / nd / nd | nd | 0 of 9 |
| 27 | GFTFDDYAMH | GISWNSGSIGEADSVK | VIRGGGYFDY | 1.86 / 1.80 / 1.72 | 1.79 | 2 of 9 (4.83) |
| 28 | HFTFDCYAMH | GISWNSGSIGYADSQK | VGRGGGYFDY | nd / nd / nd | nd | 0 of 9 |
| 29 | GFTFDDYAMH | GNSLNSGSIGYADSVK | VGRGGGYCDY | nd / nd / nd | nd | 2 of 9 (4.40) |
| 30 | GFTFDDYAMH | GISWNSGSIGCYDSVK | VGRGGGYFDY | nd / nd / nd | nd | 1 of 9 (4.86) |
| 31 | GFTEDDYAMH | GISWNSGRIGYADSVK | VGRGGGYQDY | nd / nd / nd | nd | 0 of 9 |
| 32 | GFTFDDYAMH | GISHNSGSIGYADSVK | VGRGGGYFDY | 2.86 / 3.28 / 3.12 | 3.09 | 2 of 9 (4.40) |
| 33 | GFTFDDYAMH | GISWKSGSIGAAESVK | VGRGGGYFDY | nd / nd / 4.29 | 4.29 | 1 of 9 (4.67) |
| 34 | GFTFDDYCMH | GINWNSGSIGYYDSVK | VGRGGGYFDY | nd / nd / nd | nd | 2 of 9 (5.38) |
| 35 | GFTFIDYAML | GISWNSGSIGYADSVK | VGRGGGYFDY | nd / nd / nd | nd | 3 of 9 (3.90) |
| 36 | GFTFNDYAMH | GISWNSGSIGYADNVK | VGRGGGYNDY | nd / nd / nd | nd | 0 of 9 |
| 37 | GFTFYDYAMH | GISWESGSIGYADSVK | VWRGGGYFDY | 4.23 / nd / nd | 4.23 | 1 of 9 (2.80) |
| 38 | GFGFDDYAMH | GISWMSGSIGYADKVK | VGRGGGYFDY | nd / nd / nd | nd | 1 of 9 (4.40) |
| 39 | GFTFDDYAMH | GISWNSGSIGYDDWVF | VGRGGGYFDY | nd / 5.62 / 5.51 | 5.57 | 3 of 9 (4.91) |
| 40 | GFTKGDYAMH | GISWNSGSIGYADSVK | VGRFGGYFDY | nd / nd / nd | nd | 1 of 9 (4.23) |
| 41 | GFTFDDYAMF | GISWNSGSIGYQLSVK | VGRGGGYFDY | nd / 4.90 / nd | 4.90 | 1 of 9 (3.91) |
| 42 | GFTFDDTAMG | GILWNSGSIGYADSVK | VGRGGGYFDY | 4.77 / 4.50 / 6.32 | 5.19 | 7 of 9 (4.68) |
| 43 | GFTFDDYAMG | GISWNSGSIGYADSID | VGRGGGYFDY | nd / 5.33 / nd | 5.33 | 7 of 9 (4.88) |
| 44 | GFTFDDYAMH | GITWNSGSLGYTDSVK | VGRGGGYFDY | 5.84 / nd / nd | 5.84 | 3 of 9 (4.27) |
| 45 | GFTFDDYSMW | GISWNSGSIGQADSVK | VGRGGGYFDY | 4.23 / 4.75 / nd | 4.49 | 2 of 9 (5.14) |
| 46 | GFTFDRYAMH | GISWESGSIGYADSVK | VGRGDGYFDY | 0.59 / 0.66 / 0.33 | 0.53 | 2 of 9 (4.69) |

Nonspecific signal, from three strains lacking the peptide, appeared in 21% of pairings of library AAYL51, centred on 4.54 (5% of these signals below 3.26); values are not corrected for it. Also given: how often the same scFv was detected with the empty control strains, with their mean in brackets.

Source: Engelhart et al. 2022 (doi:10.1038/s41597-022-01779-4), MIT Lincoln Laboratory and A-Alpha Bio; data file from the FLAb repository.